# High-throughput results deposited in PubChem BioAssay by Broad Institute.
# S100A4 inh HTS: inhibitors of S100A4-myosin IIA peptide binding, primary screen, biochemical, fluorescence polarization, TAMRA-MyoIIA peptide. Protein S100-A4 (Homo sapiens), P26447. actives 0.14% (n = 360,000). inhibition, % at 10.7 µM;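 active = mean inhibition of at least 70% across replicates, with every replicate also reaching that level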
#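 Assay system: human S100A4 monomer with TAMRA-labelled myosin IIA peptide / Buffer or medium: Calcium-containing HEPES buffer, pH 7.2 / Reagent: TAMRA-labelled myosin IIA heavy-chain peptide probe, 5 nM / Compound: one dose per compound / Timing: polarization read 5 min after assay mix addition, stable 5–60 min / Benchmarks: neutral control DMSO, positive control TFP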
# FGF22 binding: binders of human FGF22 protein, primary screen, FGF22 synaptogenesis inhibitor project, biophysical, thermal shift, single point | Fibroblast growth factor 22 (Homo sapiens), Q9HCT0 | recombinant FGF22 thermal shift, SYPRO orange fluorescence; percent of sucrose octasulfate shift, DMSO zero | activity (Tm shift, normalised), % at 9.99 µM | actives 1.5% (n = 340,000) | AID 651658, 2012;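 active = mean Tm shift, scaled 0 neutral to 100 positive control, at about 1.3% or above, every replicate too, limit read from the data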
# Yeast UUG start: yeast start codon fidelity modulation. S. cerevisiae UUG-firefly luciferase reporter, luminescence/redox ratio. activity score, % at 18.7 µM. 0.13% of 350,000 active;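 active = replicate mean at a twofold rise or more, about +100% in these data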;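 also: firefly luciferase made from a UUG start codon reports start codon fidelity; reporter light over untreated wells divided by growth signal over untreated wells; some hits fall short of that in this replicate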
# ERp5 inh: inhibitors of ERp5-driven insulin aggregation, primary screen, biochemical, turbidity, absorbance 650 nm, single point | Protein disulfide-isomerase A6 (Homo sapiens), Q15084 | 90 min | inhibition, % at 9.99 µM | actives 0.05% (n = 350,000);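 active = mean replicate inhibition above about 25%, with every replicate also reaching it, limit read from the data, passing the limit was not always enough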
# SIRT5 block: SIRT5 desuccinylase inhibitors, primary screen, biochemical, fluorescence imaging, single point, set 5; Purified SirT5, succinyl-peptide AMC, trypsin-coupled fluorescence; inhibition, % at 15 µM; actives 1.1% (n = 330,000); AID 652115, 2013; in the data active = inhibition above about 15%
# PDI turbidity: inhibitors of human PDI, primary screen, biochemical, turbidity, single point, plate reader; Protein disulfide-isomerase (Homo sapiens), P07237; PDI insulin aggregation turbidity, A650, 90 min; inhibition, % at 10 µM; actives 0.052% (n = 350,000); AID 588391, 2011;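 active = mean inhibition across replicates of 30% or more, whatever share of single replicates reach that level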
# Active calls of the source: *; x = no result. The list is not random: actives were taken first. Their share in the collection is about 2.2%.
entry | structure | S100A4 inh HTS | FGF22 binding | Yeast UUG start | ERp5 inh | SIRT5 block | PDI turbidity
1 | CCOC(=O)c1ccc(S(=O)(=O)NC2CC2)cc1 | 2.0 | 0.2 | -11.7 | 0.8 | 1.8 | -3.9
2 | CCOC(=O)c1ccc(S(=O)(=O)NC2CCC(C)CC2)cc1 (stereo unspecified) | 16.7 | -0.1 | 6.7 | -0.4 | 21.1* | -5.6
3 | COc1ccc2c3c([nH]c2c1)[C@H](CO)N(C(=O)c1ccc(F)cc1)CC31CN(Cc2cccnc2)C1 | -27.6 | -0.3 | x | 2.3 | -0.1 | x
4 | CCOP(=O)(OCC)c1nc(-c2ccccc2Cl)oc1N1CCOCC1 | 0.5 | 44.5* | -8.5 | 1.5 | 2.2 | 11.5
5 | COc1ccc2cc3cc(C(=O)N4CCCCCC4)oc3nc2c1 | x | x | -33.2 | x | x | -8.8
6 | COc1ccc2cc3cc(C(=O)N4CCCCC4C)oc3nc2c1 (stereo unspecified) | 1.8 | 0.1 | -35.8 | -1.0 | 17.9* | -4.2
7 | CN(C)c1nc(Cl)nc(N(C#N)CCOc2ccccc2)n1 | -2.0 | 43.4* | x | -4.4 | 0.2 | 3.2
8 | CCNc1nc(NCC)nc(N(C#N)CCOc2ccccc2)n1 | -2.5 | -0.1 | x | 0.4 | -0.2 | -6.2

entry | structure | S100A4 inh HTS | FGF22 binding | Yeast UUG start | ERp5 inh | SIRT5 block | PDI turbidity
9 | CCOC(=O)C1=C(CN2CCSCC2)NC(=O)NC1c1cccc([N+](=O)[O-])c1 (stereo unspecified) | 0.7 | 0.3 | x | 5.3 | 0.2 | -7.3
10 | CCOC(=O)C1=C(CN2CCOCC2)NC(=O)NC1c1cccc([N+](=O)[O-])c1 (stereo unspecified) | -7.9 | 0.2 | -8.0 | 0.4 | 16.1* | 0.6
11 | CCOC(=O)C1=C(CS(=O)(=O)c2ccccc2)NC(=O)NC1c1cccc(OC)c1 (stereo unspecified) | -0.7 | 43.9* | x | -0.1 | 0.2 | -3.8
12 | C[C@H](CO)N1C[C@H](C)[C@H](CN(C)S(=O)(=O)c2cccs2)Oc2ccc(NC(=O)CCC(F)(F)F)cc2C1=O | -5.3 | 0.0 | 1.3 | 2.4 | -2.1 | x
13 | CO[C@H]1CN(C)C(=O)c2ccc(NC(=O)C3CCCC3)cc2OC[C@H](C)NC[C@@H]1C | -10.4 | x | x | 2.3 | -0.9 | x
14 | COc1cc(C2C(C#N)=C(N)Oc3c2ccc2ccccc32)ccc1OCC(=O)Nc1cccc(C)c1 (stereo unspecified) | 8.0 | 0.2 | -20.4 | 0.9 | -1.4 | -2.1
15 | COc1cc(C2C(C#N)=C(N)Oc3c2ccc2ccccc32)ccc1OCC(=O)Nc1ccc(C)cc1 (stereo unspecified) | -1.4 | 0.1 | 1.6 | 3.7 | 20.0* | -6.2
16 | O=C(c1nnsc1S(=O)(=O)c1ccc(Cl)cc1)N1CCOCC1 | -1.6 | 0.6 | x | 4.9 | 0.5 | 0.6

entry | structure | S100A4 inh HTS | FGF22 binding | Yeast UUG start | ERp5 inh | SIRT5 block | PDI turbidity
17 | CNC(=O)c1nnsc1S(=O)(=O)c1ccc(Cl)cc1 | 0.0 | 43.0* | -33.9 | 2.6 | -6.5 | 1.4
18 | CN1N=C(C(F)(F)F)CC1=O | 1.5 | 43.6* | x | -3.2 | -0.3 | 1.2
19 | O=C(COC(=O)CSc1ccc([N+](=O)[O-])cc1)NCc1cccs1 | -2.8 | 0.2 | -15.6 | -3.7 | 15.5* | 0.2
20 | COc1ccc(C=C(C#N)C(=O)c2ccccc2)cc1 | 1.0 | 0.3 | x | -2.9 | x | x
21 | COc1cc(/C=C(\C#N)C(=O)c2ccc(O)c(O)c2)cc(I)c1O | -15.3 | 0.1 | 9.8 | 0.2 | 20.4* | 3.9
22 | COCC(=O)N1CC2(C1)[C@@H](c1ccccc1)[C@@H](CO)N2C(=O)c1ccccc1 | 0.0 | x | x | 2.3 | -1.8 | x
23 | O=C1CCN(Cc2nc(-c3ccc(Cl)cc3)no2)CCN1 | -3.7 | 43.0* | -12.6 | 0.2 | -2.5 | 0.9
24 | O=C(NCC(=O)N1CCN(C(c2ccccc2)c2ccccc2)CC1)c1ccccc1Br | -0.8 | -0.3 | -13.7 | 1.3 | 19.7* | -2.0
25 | Cn1cc(Br)c(C(=O)Nc2c(F)c(F)c(F)c(F)c2F)n1 | -28.7 | 0.1 | -5.8 | -3.3 | 20.8* | 5.4
26 | Oc1cc(O)c2c(c1)O[C@H](c1ccc(O)c(O)c1)[C@@H](O)C2 | -0.9 | -0.5 | -18.5 | -1.2 | -1.7 | -1.6

# Record cards (already shown). Order of values: S100A4 inh HTS, FGF22 binding, Yeast UUG start, ERp5 inh, SIRT5 block, PDI turbidity
# Oc1cc(O)c2c(c1)O[C@H](c1ccc(O)c(O)c1)[C@@H](O)C2 reads -0.9, -0.5, -18.5, -1.2, -1.7, -1.6
# COc1cc(/C=C(\C#N)C(=O)c2ccc(O)c(O)c2)cc(I)c1O reads -15.3, 0.1, 9.8, 0.2, 20.4*, 3.9
